{"sequences": {"note": "By UniProt entry, the sequences of proteins in these tests, tags left out.", "UniProt P15559, whole entry": "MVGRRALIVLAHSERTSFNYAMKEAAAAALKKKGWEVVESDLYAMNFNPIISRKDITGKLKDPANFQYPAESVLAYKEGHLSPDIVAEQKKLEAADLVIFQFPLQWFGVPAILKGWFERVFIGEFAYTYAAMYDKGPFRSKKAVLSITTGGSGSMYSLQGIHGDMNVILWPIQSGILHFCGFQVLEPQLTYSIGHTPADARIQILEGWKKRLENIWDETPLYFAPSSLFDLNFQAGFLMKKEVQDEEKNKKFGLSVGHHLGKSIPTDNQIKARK"}, "source": "patent US10285986B2", "about": "“Compounds and anti-tumor NQO1 substrates” (The Board of Trustees of the University of Illinois, priority 2011, dated 2019)", "key": {"NQO1": {"target": "NQO1 (Homo sapiens, UniProt P15559)", "assay": "NQO1 enzymatic measurements in vitro"}, "[1]": {"assay": "Solubility in organic solvents"}, "MCF-7 cells": {"test_system": "MCF-7 cells", "assay": "Cytotoxicity to MCF-7 cells with or without 25 μM dicoumarol (sulforhodamine B assay)"}}, "note": "Read-outs that look alike come from different tables or passages of the source.", "data": [{"smiles": "CCCCCCCCCCCCn1c2c(c(C)cc1=O)C(=O)c1c(C)cc(=O)[nH]c1C2=O", "values": [{"measurement": "NQO1 Vmax", "setting": "NQO1", "value": "750 ± 20", "unit": "μmol/min/μmol protein"}, {"measurement": "Catalytic Efficiency", "setting": "NQO1; Table 1", "value": "8.9e+06", "unit": "M⁻¹ s⁻¹"}, {"measurement": "Solubility in 2:1 CH2Cl2:MeOH", "setting": "[1]; 2:1 CH2Cl2:MeOH, Table 4.3", "value": 34, "unit": "mM"}, {"measurement": "CH2Cl2:MeOH 2:1 solubility", "setting": "[1]; CH2Cl2:MeOH 2:1, Table 1", "value": 34, "unit": "mM"}, {"measurement": "CH2Cl2 solubility", "setting": "[1]; CH2Cl2, Table 1", "value": 34, "unit": "mM"}, {"measurement": "Solubility in CH2Cl2", "setting": "[1]; CH2Cl2, Table 4.3", "value": 34, "unit": "mM"}, {"measurement": "DMSO solubility", "setting": "[1]; DMSO, Table 1", "value": 1.2, "unit": "mM"}, {"measurement": "Solubility in DMSO", "setting": "[1]; DMSO, Table 4.3", "value": 1.2, "unit": "mM"}, {"measurement": "THF solubility", "setting": "[1]; THF, Table 1", "value": 19, "unit": "mM"}, {"measurement": "IC50", "setting": "MCF-7 cells; read-out: IC50 vs. MCF-7 cells, Table 4.1, 2 h exposure, no DIC, ± s.e.", "value": 8, "unit": "µM"}, {"measurement": "IC50", "setting": "MCF-7 cells; read-out: MCF7 IC50, Table 1", "value": 8, "unit": "µM"}]}]}
